{"source": "patent US20140322202A1", "about": "“TREATMENT WITH ANTI ErbB2 ANTIBODIES” (Genentech, Inc., priority 1999, published 2014)", "origin": "cited, not measured here", "key": {"[1]": {"tested_on": "breast cancer cells that contain high levels of ErbB2"}, "[2]": {"tested_on": "BT-474 human breast adenocarcinoma cells", "conditions": "breast cancer xenografts in nude mice injected with BT-474 cells"}, "[3]": {"tested_on": "breast cancer cells that contain high levels of ErbB2", "remark": "listed apart in the source"}, "[4]": {"tested_on": "ErbB2-overexpressing metastatic breast cancers", "conditions": "patients with ErbB2-overexpressing metastatic breast cancers that had received extensive prior therapy"}}}
{"substance": "HERCEPTIN: recombinant humanized anti-ErbB2 monoclonal antibody, a humanized version of the murine anti-ErbB2 antibody 4D5", "values": [{"measurement": "inhibition of growth in vitro", "setting": "[1]", "result": "markedly inhibits"}, {"measurement": "enhancement of activity of paclitaxel (TAXOL) and doxorubicin", "setting": "[2]", "result": "enhance the activity"}, {"measurement": "inhibition of growth in human xenografts", "setting": "[3]", "result": "markedly inhibits"}, {"measurement": "clinical activity", "setting": "[4]", "result": "clinically active"}]}
